Active and inactive are the calls of the source. The calls are words filed in the database; no cut-off is given here.
Target: Tyrosine-protein kinase SYK (Homo sapiens) (UniProt P43405)
Test: Induction of SYK phosphorylation in human CD3-positive T cells at 3.2 to 10000 nM preincubated for 15 mins followed by anti-CD3/CD28 stimulation and measured after 1 hrs by Western blot analysis
Type: cell-based
Settings: CD3-positive T cell, dose 3.2-10000 nM, time 75.0 min

## C[C@H]1CCCN(Cc2cc3c(C(F)(F)F)cn(-c4cccc([C@]5(c6nncn6C)C[C@@H](C)C5)c4)c(=O)c3[nH]2)C1
  Activity: inactive
